Data set [1] concerns MDA-MB-231. Briefly: Cytostatic activity against human MDA-MB-231 cells preincubated for 3 hrs followed by serum treatment for 72 hrs measured on day 4 by MTT assay. Format: functional, cell-based. A general note: Tetrazolium dyes change colour on reduction, which living cells bring about.
Data set [2] relates to MCF7. Briefly: Cytostatic activity against human MCF7 cells preincubated for 3 hrs followed by serum treatment for 72 hrs measured on day 4 by MTT assay. Format: functional, cell-based.
Data set [3] has as its system MCF7. Briefly: Drug uptake in human MCF7 cells at 1 uM preincubated for 90 mins followed by compound wash out and subsequent trypsin addition for 10 mins by 5 (6)-carboxy-fluorescein based flow cytometric analysis. Format: ADME, cell-based. The conditions noted are these: mcf7, 10 min. A general note: A flow cytometer gives signals particle by particle.
Data set [4] relates to MCF7. The data set is described as follows: Drug uptake in human MCF7 cells at 5 uM preincubated for 90 mins followed by compound wash out and subsequent trypsin addition for 10 mins by 5 (6)-carboxy-fluorescein based flow cytometric analysis. The conditions noted are these: mcf7, 10 min. Format: ADME, cell-based.
The test system of data set [5] is MCF7. Briefly: Drug uptake in human MCF7 cells at 10 uM preincubated for 90 mins followed by compound wash out and subsequent trypsin addition for 10 mins by 5 (6)-carboxy-fluorescein based flow cytometric analysis. It counts as ADME, cell-based. The conditions noted are these: mcf7, 10 min.
Data set [6] relates to MDA-MB-231. The data set is described as follows: Drug uptake in human MDA-MB-231 cells at 1 to 10 uM preincubated for 90 mins followed by compound wash out and subsequent trypsin addition for 10 mins by 5 (6)-carboxy-fluorescein based flow cytometric analysis. Format: ADME, cell-based. Conditions: mda-mb-231, 10 min; call rule not given here.

Each structure is given as a SMILES string. Bounds are passed on as bounds.

The text below walks through data of ChEMBL document CHEMBL3785012, “Cell-penetrating conjugates of pentaglutamylated methotrexate as potential anticancer drugs against resistant tumor cells” (Eur J Med Chem, 2016).

Consider `CC[C@H](C)[C@H](NC(=O)[C@H](CCCCN)NC(=O)[C@@H](NC(=O)[C@H](CCC(N)=O)NC(=O)[C@@H](N)CCCNC(=N)N)[C@@H](C)CC)C(=O)N[C@@H](Cc1c[nH]c2ccccc12)C(=O)N[C@@H](Cc1ccccc1)C(=O)N[C@@H](CCC(N)=O)C(=O)N[C@@H](CC(N)=O)C(=O)N[C@@H](CCCNC(=N)N)C(=O)N[C@@H](CCCNC(=N)N)C(=O)N[C@@H](CCSC)C(=O)N[C@@H](CCCCN)C(=O)N[C@@H](Cc1c[nH]c2ccccc12)C(=O)N[C@@H](CCCCN)C(=O)N[C@@H](CCCCN)C(=O)O`, for which the IC50 with MDA-MB-231 [1] and in the data set on MCF7 [2] was greater than 100 µM each time. Further, the Flu intensity in the data set on MCF7 [3] is reported as 1728; in the data set with MCF7 [4] it was less than 7361; with MCF7 [5], less than 12310. Also, the Drug uptake result in the data set on MDA-MB-231 [6] is recorded as “Active”.

A word on the IC50: it is the midpoint of a concentration-inhibition curve. Low values mean inhibition by little substance, high ones a need for much substance.
